# Assay results from PMC7723054.
# Some of the results follow.
# T1: LIN28A (human?, UniProt Q9H9Z2 1-209)
# T1 sequence: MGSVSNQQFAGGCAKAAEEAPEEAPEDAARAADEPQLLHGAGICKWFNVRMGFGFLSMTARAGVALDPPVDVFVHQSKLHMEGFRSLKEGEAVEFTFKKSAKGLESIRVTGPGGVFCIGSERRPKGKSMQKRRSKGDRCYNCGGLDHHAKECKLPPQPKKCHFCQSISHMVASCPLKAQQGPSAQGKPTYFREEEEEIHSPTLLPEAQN
# T2: CIRBP (Homo sapiens, UniProt Q14011 1-172)
# T2 sequence: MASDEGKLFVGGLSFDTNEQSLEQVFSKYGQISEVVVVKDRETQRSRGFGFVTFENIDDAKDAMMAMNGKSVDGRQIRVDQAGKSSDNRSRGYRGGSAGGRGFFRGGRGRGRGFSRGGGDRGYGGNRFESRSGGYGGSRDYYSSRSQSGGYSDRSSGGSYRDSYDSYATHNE
# T3: DHX36 (Homo sapiens, UniProt Q9H2U1 1-1008)
# T3 sequence: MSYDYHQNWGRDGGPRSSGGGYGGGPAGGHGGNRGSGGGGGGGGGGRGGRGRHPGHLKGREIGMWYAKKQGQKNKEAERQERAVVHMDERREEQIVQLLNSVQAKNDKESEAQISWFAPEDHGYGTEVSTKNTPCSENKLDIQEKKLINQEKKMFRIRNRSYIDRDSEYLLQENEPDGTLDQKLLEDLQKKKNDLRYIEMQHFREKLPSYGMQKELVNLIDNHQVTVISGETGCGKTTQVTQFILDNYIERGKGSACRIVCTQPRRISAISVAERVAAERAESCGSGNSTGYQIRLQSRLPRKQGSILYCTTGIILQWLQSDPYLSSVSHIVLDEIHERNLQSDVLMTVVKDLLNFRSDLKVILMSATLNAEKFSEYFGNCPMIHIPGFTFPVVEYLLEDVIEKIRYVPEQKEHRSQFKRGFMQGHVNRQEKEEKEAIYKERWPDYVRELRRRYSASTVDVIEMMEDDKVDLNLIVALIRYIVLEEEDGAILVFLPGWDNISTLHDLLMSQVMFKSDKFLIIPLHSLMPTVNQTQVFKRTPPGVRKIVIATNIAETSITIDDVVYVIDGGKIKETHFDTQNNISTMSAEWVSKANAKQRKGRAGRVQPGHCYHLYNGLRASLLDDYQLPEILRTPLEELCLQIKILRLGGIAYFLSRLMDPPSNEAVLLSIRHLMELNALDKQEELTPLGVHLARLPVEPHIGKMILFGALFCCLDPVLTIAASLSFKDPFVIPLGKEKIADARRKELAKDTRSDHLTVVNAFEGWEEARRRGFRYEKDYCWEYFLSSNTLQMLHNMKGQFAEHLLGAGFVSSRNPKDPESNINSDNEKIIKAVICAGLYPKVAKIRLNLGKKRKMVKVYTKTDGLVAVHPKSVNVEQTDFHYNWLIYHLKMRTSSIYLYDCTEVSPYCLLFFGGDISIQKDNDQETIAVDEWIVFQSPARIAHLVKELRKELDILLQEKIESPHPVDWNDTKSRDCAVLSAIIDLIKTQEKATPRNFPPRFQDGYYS
# B1: hsa-mir-4476 (structured_RNA)
# RNA: GGGAACUCGUUGGGCCGAAAACCUUUUAGGUGUACGAAGUUUCAGCCCCAGCCUUCCAGAGUUGGUGCCAGGGCUGAAGCUUCGUGCAC
# B2: hsa-mir-1276 (structured_RNA)
# RNA: GGGACCUUGGUAUGGCAACUAUAGUACGGGUGUACGAAGUUUCAGCGACACCUGGAUUCAGAGAACAUGUCGCUGAAGCUUCGUGCAC
# B3: hsa-mir-4252 (structured_RNA)
# RNA: GGGAAAAGGGGUAUUAGAAGGGCGCUUAGGUGUACGAAGUUUCAGCGGCCAUCUGGCCGCUGAAGCUUCGUGCAC
# B4: hsa-mir-4310 (structured_RNA)
# RNA: GGGACCGAACCGCUGUUGACGAAACCAUGGUGUACGAAGUUUCAGCCUGCAGAACAUUGCAGGCUGAAGCUUCGUGCAC
# B5: hsa-mir-6506 (structured_RNA)
# RNA: GGGACCAGACGUGGAUGAAAUGGCCUUCGGUGUACGAAGUUUCAGCAUGGUGUUUGUGAGUUGAUUGACAUCGUGCUGAAGCUUCGUGCAC
# B6: hsa-mir-5197 (structured_RNA)
# RNA: GGGAAAGCUGGUAGGCCGAACUCGCAAAGGUGUACGAAGUUUCAGCUCUUGAAUUUUUGCCAGUUCAAGAGCUGAAGCUUCGUGCAC
# B7: hsa-mir-1238 (structured_RNA)
# RNA: GGGAGAGAUAACAGAAAGAGUGCCCAAGGGUGUACGAAGUUUCAGCUGUGGUUGGGGCCAUGGCGGGUGGGCAGCCCAGCCUCUGAGCCUUCCUGCUGAAGCUUCGUGCAC
# B8: hsa-mir-3132 (structured_RNA)
# RNA: GGGAACGAUGUUGAGUAUAGAGUUACCCGGUGUACGAAGUUUCAGCAGGACGGUGCGCCUUGUUUCCCGCUGAAGCUUCGUGCAC
# B9: hsa-mir-3155b (structured_RNA)
# RNA: GGGAGUGUGGAUCGCGGCUUUCAACGUAGGUGUACGAAGUUUCAGCCUGGGAAGGGAGCUGUCCGGCUCCCCAGGCUGAAGCUUCGUGCAC
# B10: hsa-mir-6864 (structured_RNA)
# RNA: GGGAAACUCGGCGUGUGAACUCCAGAAUGGUGUACGAAGUUUCAGCGAUAUGCCAUUAUGUGGGUCAUGAGGUGGUGAGCUGAAGCUUCGUGCAC
# B11: hsa-mir-101-1 (structured_RNA)
# RNA: GGGAAAAGUUGUACGCCUGCGCCCUGUAGGUGUACGAAGUUUCAGCGAUGCUGUCUAUUCUAAAGGUACGCUGAAGCUUCGUGCAC
# B12: hsa-mir-1301 (structured_RNA)
# RNA: GGGAGACUUCCCGAGAGGGUCAACCUCUGGUGUACGAAGUUUCAGCGCAGCACUGUGCUGGGGAUGUUGCGCUGAAGCUUCGUGCAC
# B13: hsa-mir-942 (structured_RNA)
# RNA: GGGAAACUCACUGGAGAGGUACCGACAGGGUGUACGAAGUUUCAGCUGUGUGUACUCACAGCCCCUCACACAGCUGAAGCUUCGUGCAC
# B14: hsa-mir-4749 (structured_RNA)
# RNA: GGGAACAGCUAUCUGAGACUAAUACGGUGGUGUACGAAGUUUCAGCGGCAUCUAGGCUGUGCACAGUGACGCCGCUGAAGCUUCGUGCAC
# B15: hsa-mir-30a (structured_RNA)
# RNA: GGGAAAGGGGCGCCAUAAAAGUCAAGCUGGUGUACGAAGUUUCAGCGAAGCUGUGAAGCCACAGAUGGGCUUUGCUGAAGCUUCGUGCAC
# B16: hsa-mir-6874 (structured_RNA)
# RNA: GGGACUAAAUGGGAACGGGAACCUUAUCGGUGUACGAAGUUUCAGCUCAGGCUUUAAUGUUUGAAGUAAUGUCAGUGCUGAAGCUUCGUGCAC
# B17: hsa-mir-3680-2_3680-1 (structured_RNA)
# RNA: GGGAAGGACUUUAGCAAGAGUACUCCACGGUGUACGAAGUUUCAGCUGCAAAUGCAAAGUUGGCUUUUGCAGCUGAAGCUUCGUGCAC
# B18: hsa-mir-6804 (structured_RNA)
# RNA: GGGAACUGGCGAGGUCUCGUAGCCUAACGGUGUACGAAGUUUCAGCGACGGUGGGGGCCACGCUGACAGCCGCGCUGAAGCUUCGUGCAC
# B19: hsa-mir-6735 (structured_RNA)
# RNA: GGGACUGCAACAACGGGAACAUGUGGUCGGUGUACGAAGUUUCAGCAUCUGAGGUGACUGGCACAGAAGACUCAGGGCUGAAGCUUCGUGCAC
# B20: hsa-mir-4485 (structured_RNA)
# RNA: GGGAACCUUCCUGUAAAGUUAGUAGGCAGGUGUACGAAGUUUCAGCCAGUGACAUGCGUUUAACGCUGAAGCUUCGUGCAC
# B21: hsa-mir-4482 (structured_RNA)
# RNA: GGGACGUAUAUGGCCAGUUGGGGAACGUGGUGUACGAAGUUUCAGCGAAAUGUGUGGAAGAUGGCAUUUCGCUGAAGCUUCGUGCAC
# B22: hsa-mir-744 (structured_RNA)
# RNA: GGGACUAUUAGGGUAACCAUCGGCACGUGGUGUACGAAGUUUCAGCACAGCAGUCUUACUGAAGGUUUCCUGGAAACCACGCACAUGCUGUGCUGAAGCUUCGUGCAC
# B23: hsa-mir-4488 (structured_RNA)
# RNA: GGGAAAUUUGGAGCACCCUAAACCGGCCGGUGUACGAAGUUUCAGCGGCGCUGGGACCCCACUAGGGUGGCGCCGCUGAAGCUUCGUGCAC
# Tests used:
# Experiment in all cases: FOREST: bead pull-down of RNA structure library v1, barcode microarray; U1A/LIN28A: 20 mM HEPES pH 7.5, 80 mM KCl, 20 mM NaCl, 10% glycerol, 2 mM DTT, 0.1 ug/uL BSA, 4 C; BG4/CIRBP/DHX36: 10 mM Tris-HCl pH 7.5, 100 mM KCl (or LiCl),; high values mean tight binding
# U1A = U1A (Homo sapiens, UniProt P09012)
# LIN28A = molecular target: T1, LIN28A
# CIRBP = molecular target: T2, CIRBP
# DHX36 = molecular target: T3, DHX36
binder,measurement,setting,value
B1,binding signal,U1A,0.122 z-score
same,binding signal,LIN28A,-1.31 z-score
same,binding signal,CIRBP,-0.112 z-score
same,binding signal,DHX36,0.293 z-score
B2,binding signal,U1A,0.114 z-score
same,binding signal,LIN28A,-0.138 z-score
same,binding signal,CIRBP,-0.391 z-score
same,binding signal,DHX36,-0.427 z-score
B3,binding signal,U1A,0.117 z-score
same,binding signal,LIN28A,-0.169 z-score
same,binding signal,CIRBP,0.401 z-score
same,binding signal,DHX36,0.294 z-score
B4,binding signal,U1A,0.116 z-score
same,binding signal,LIN28A,-0.489 z-score
same,binding signal,CIRBP,0.527 z-score
same,binding signal,DHX36,0.068 z-score
B5,binding signal,U1A,0.116 z-score
same,binding signal,LIN28A,0.276 z-score
same,binding signal,CIRBP,-0.544 z-score
same,binding signal,DHX36,0.217 z-score
B6,binding signal,U1A,0.121 z-score
same,binding signal,LIN28A,-0.769 z-score
same,binding signal,CIRBP,0.518 z-score
same,binding signal,DHX36,-0.498 z-score
B7,binding signal,U1A,0.116 z-score
same,binding signal,LIN28A,0.519 z-score
same,binding signal,CIRBP,0.335 z-score
same,binding signal,DHX36,1.96 z-score
B8,binding signal,U1A,0.104 z-score
same,binding signal,LIN28A,0.395 z-score
same,binding signal,CIRBP,0.436 z-score
same,binding signal,DHX36,0.2 z-score
B9,binding signal,U1A,0.112 z-score
same,binding signal,LIN28A,-0.309 z-score
same,binding signal,CIRBP,-0.56 z-score
same,binding signal,DHX36,0.11 z-score
B10,binding signal,U1A,0.12 z-score
same,binding signal,LIN28A,0.268 z-score
same,binding signal,CIRBP,0.315 z-score
same,binding signal,DHX36,-0.041 z-score
B11,binding signal,U1A,0.0942 z-score
same,binding signal,LIN28A,0.137 z-score
same,binding signal,CIRBP,0.558 z-score
same,binding signal,DHX36,-0.686 z-score
B12,binding signal,U1A,0.116 z-score
same,binding signal,LIN28A,0.285 z-score
same,binding signal,CIRBP,-2.18 z-score
same,binding signal,DHX36,-0.297 z-score
B13,binding signal,U1A,1.74 z-score
same,binding signal,LIN28A,-0.943 z-score
same,binding signal,CIRBP,-0.484 z-score
same,binding signal,DHX36,-0.815 z-score
B14,binding signal,U1A,0.119 z-score
same,binding signal,LIN28A,-0.547 z-score
same,binding signal,CIRBP,-0.5 z-score
same,binding signal,DHX36,-1.33 z-score
B15,binding signal,U1A,0.109 z-score
same,binding signal,LIN28A,-0.388 z-score
same,binding signal,CIRBP,0.0952 z-score
same,binding signal,DHX36,0.327 z-score
B16,binding signal,U1A,0.111 z-score
same,binding signal,LIN28A,-0.201 z-score
same,binding signal,CIRBP,-0.5 z-score
same,binding signal,DHX36,-0.882 z-score
B17,binding signal,U1A,0.103 z-score
same,binding signal,LIN28A,0.184 z-score
same,binding signal,CIRBP,0.165 z-score
same,binding signal,DHX36,-0.25 z-score
B18,binding signal,U1A,0.0917 z-score
same,binding signal,LIN28A,-0.64 z-score
same,binding signal,CIRBP,-0.207 z-score
same,binding signal,DHX36,0.303 z-score
B19,binding signal,U1A,1.79 z-score
same,binding signal,LIN28A,0.482 z-score
same,binding signal,CIRBP,0.911 z-score
same,binding signal,DHX36,-0.336 z-score
B20,binding signal,U1A,0.0961 z-score
same,binding signal,LIN28A,0.998 z-score
same,binding signal,CIRBP,0.0306 z-score
same,binding signal,DHX36,-0.158 z-score
B21,binding signal,U1A,0.0945 z-score
same,binding signal,LIN28A,0.294 z-score
same,binding signal,CIRBP,-0.428 z-score
same,binding signal,DHX36,0.237 z-score
B22,binding signal,U1A,3.42 z-score
same,binding signal,LIN28A,0.621 z-score
same,binding signal,CIRBP,0.628 z-score
same,binding signal,DHX36,1.5 z-score
B23,binding signal,U1A,0.0999 z-score
same,binding signal,LIN28A,-0.271 z-score
same,binding signal,CIRBP,0.356 z-score
same,binding signal,DHX36,-0.641 z-score
